scFv variants of Ab-14 (heavy chain) against a SARS-CoV-2 spike peptide

Reference: Li et al. 2023, doi:10.1038/s41467-023-39022-2. File: FLAb, binding data.

Antigen: PDVDLGDISGINAS, a 14-residue peptide of the SARS-CoV-2 spike HR2 region.

Parent: Ab-14, a human scFv built as VH, the linker GGGGSGGGGSGGGGS, VL. Only the CDRs of the heavy chain vary.
VH: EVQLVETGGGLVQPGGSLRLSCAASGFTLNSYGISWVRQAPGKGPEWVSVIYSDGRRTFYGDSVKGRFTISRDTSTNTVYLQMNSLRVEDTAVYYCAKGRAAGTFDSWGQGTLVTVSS
VL: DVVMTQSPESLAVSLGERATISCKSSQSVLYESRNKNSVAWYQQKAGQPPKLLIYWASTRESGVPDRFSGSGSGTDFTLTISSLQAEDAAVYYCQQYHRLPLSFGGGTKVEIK

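The variants were designed computationally from a first round of random CDR variants and then made and measured. Group labels follow the data file (Ctrl: baseline library sampled from a position-specific scoring matrix, with some repeated check sequences; Rand: our label for a block that the file lists under HC and that is probably the random mutants of the ten best first-round binders; En: ensemble of fine-tuned language models; GP: Gaussian process model; GPLM: also part of the Gaussian process libraries; HC: hill climbing; Gen: genetic algorithm; Gibbs: Gibbs sampling; a sequence that several methods proposed may carry one label only). In AlphaSeq, yeast of one mating type display the scFv and yeast of the other type display the target. Mating (16 h, 30 °C) was followed by selection of diploids and sequencing of their barcodes. The ratio of observed to expected reads was calibrated, replicate by replicate, on BCL2-family standards whose Kd was known from biolayer interferometry. Mating was done six times.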

Variants are written as CDR1, CDR2 and CDR3 of the heavy chain (limits as in the source). Parent: GFTLNSYGIS, VIYSDGRRTFYGDSVK, GRAAGTFDS.
Values are apparent Kd, the geometric mean of the replicates that gave a signal; lower means stronger binding.
"not detected" means that the variant was in the library but no mating with the target was seen in any replicate; the authors take this as a sign of poor binding, and no number exists.
The parent sequence was in this pool as ten entries: three were never detected, three once, and four in most replicates, with averages from 2.2 nM to 240 nM.
Nonspecific signal, from three strains lacking the peptide, appeared in 1% of pairings of all heavy chain designs, centred on 120 nM (5% of these signals below 7.0 nM); values are not corrected for it. The control count says in how many pairings with the empty strains this scFv gave a signal.
The authors averaged sequences with at least three values out of six and counted those with two or fewer as poor binders.
A sequence measured in both rounds can read differently, since the two assays cover different ranges.

CDR-H1	CDR-H2	CDR-H3	group	apparent Kd	seen in	control signals
GFELNSYGIS	VIYADGRRTFYGDSVK	GQAAGTFDA	GP_Gen	3.7 nM	6/6	0/18
GFDLDEYGIS	VIYADGMRTAYTDSVK	GNQAGTFDV	En_Gen	320 pM	6/6	2/18
GFTLNSYGIS	VIYSDGRRTFYIDSVK	GGAAGYFSS	Ctrl	410 nM	1/6	0/18
GFSLNEYGIS	VIYSDGRRTFYDDDVK	GKAAGTFDS	GP_Gibbs	750 pM	6/6	0/18
GFDLNEYGIS	VIYADGRRQMYANPVK	GHMGGIKLT	En_Gibbs	63 nM	3/6	1/18
GFTLDSYGIS	VIYSDGRRTFYADAVK	GRAAGTFDV	GP_Gibbs	4.0 nM	6/6	0/18
GFDLEEMGIS	VIYADGSRKKYQDAVK	GGVSGDFDE	En_Gibbs	not detected	0/6	0/18
GFNIDEYGIS	VIYADGQRLSYDDNVK	GGITGTFTN	En_Gibbs	not detected	0/6	0/18
GFDLNEYGIS	VIYADGQRTAYADSVK	GSNAGTFDM	En_Gen	500 pM	6/6	0/18
GFTLNSYGIS	VIYSDGRRTFYGDSVK	GKAACTFDS	Ctrl	not detected	0/6	0/18
GFDLNEYGIS	VIYADGVRTAYADNVK	GQVAGTFDV	En_Gen	410 pM	6/6	0/18
GFTLNDYGIS	VIYSDGRRTFYGDSVK	GRTAGTFIS	GPLM_HC	140 nM	1/6	0/18
GFELNEYGIS	VIYSDGRRTFYGDRVK	GRTAGTFDS	GP_Gen	1.7 nM	6/6	0/18
GFDLNEYGIS	VIYADGMRTAYADNVK	GNNAGTFDM	En_Gen	5.8 nM	6/6	0/18
KFSLNNYGIS	VIYSDGRRTFYGDSVK	GRQAGTFDS	GP_Gibbs	54 nM	3/6	0/18
KFTLNSYGIS	VIYSDGRRTAYGDSVK	GRAAGTFTS	Ctrl	not detected	0/6	0/18
GFTLNSYGIS	VIYSDGRRTQYGDSVK	HRAAKTFDS	Ctrl	not detected	0/6	0/18
GFPLNSYGIS	VIYSDGRRTFYGDSVR	GRAAGTFDS	Ctrl	49 nM	4/6	0/18
GFSLNEYGIS	VIYSDGKRTFYGWSVK	GRTAGTFDS	GP_Gibbs	33 nM	3/6	0/18
GFDLNEYGIS	VIYADGMRKFYADSVK	GNQAGTFDV	En_Gen	1.7 nM	6/6	0/18
GFDLNEYGIS	VIYADGKRSFYADSVK	GQLAGTFDV	En_HC	430 pM	6/6	0/18
GFTLNQYGIS	VIYSDGRRTFYSDQVK	GRAAGFFDS	Rand	not detected	0/6	1/18
GFALNSYGIS	VIYSDGRRTFYGDSVK	GRAAGTFDS	Ctrl	150 nM	6/6	2/18
GFELNSYGIS	VIYSDGRRTFYGDEVK	GRTAGTFDS	GP_Gen	14 nM	6/6	1/18
GFTLLSYGIS	VIYSDGRRTFYDDDVK	GSAAGTFDS	Ctrl	1.2 µM	3/6	0/18
GFTLNSYGIS	VIYSDGRRTFYGDSVK	GIATGTFDS	Ctrl	not detected	0/6	0/18
GFTLNSYGIS	VIYSDGRRTFYSDSVK	GRAAGFFSS	GPLM_HC	not detected	0/6	2/18
GFELNEYGIS	VIYSDGRRTFYGDSVK	GRCAGTFDT	GP_Gen	52 nM	6/6	0/18

The remaining entries, values ahead:

apparent Kd	seen in	control signals	CDR-H1	CDR-H2	CDR-H3	group
not detected	0/6	0/18	PFEVNNYGIS	VIYSDGRRTFYIDSTK	GRAAGTFDS	Ctrl
1.4 nM	6/6	0/18	GFTLNEYGIS	VIYSDGRRTFYGDSVK	GKAAGTFDK	GPLM_Gen
1.1 nM	6/6	0/18	GFQLNSYGIS	VIYSDGRRTFYADSVK	GNVAGTFDS	GPLM_Gibbs
200 pM	6/6	0/18	GFDLNEYGIS	VIYADGSRTAYSDSVK	GQTAGTFDA	En_HC
25 nM	1/6	2/18	GFDLDKYGIS	VIYADGKRVAYTDDVK	GVTGGMALV	En_Gibbs
2.6 nM	6/6	0/18	GFNLNSYGIS	VIYSDGRRTFYDDSVK	GRQAGTFDS	GPLM_Gibbs
410 pM	6/6	0/18	GFDLNEYGIS	VIYADGQRTSYADSVK	GENAGTFDV	En_Gen
550 pM	6/6	0/18	GFNLNEYGIS	VIYADGRRTFYADSVK	GEQAGTFDI	En_HC
9.5 nM	6/6	0/18	GFELNSYGIS	VIYSDGRRTFYGDQVK	GRTAGTFDL	GP_Gibbs
not detected	0/6	0/18	GFDLDEYGIS	VIYADGVRMAYTDRVK	GNWSGRDMY	En_Gibbs
not detected	0/6	0/18	GFDLGEYGIS	VIYADGSRKAYATNVK	GGSGYKDGV	En_Gibbs
not detected	0/6	0/18	GKTLDEYGIS	VIYADGMRTFYANTVK	GEDGGFLNQ	En_Gibbs
not detected	0/6	1/18	GFDLNEYGVS	VIYADGIRTAYADSFK	GDVGVALFQ	En_Gibbs
not detected	0/6	0/18	GFTLDSYGIS	VIYSDGRRTFYGDSVK	GRAAGTTLS	Rand
560 pM	6/6	0/18	GFDLNEYGIS	VIYADGRRTQYIDSVK	GNVAGTFDM	En_HC
450 pM	6/6	0/18	GFDLNEYGIS	VIYADGKRTAYADNVK	GNVAGTFDT	En_Gen
16 nM	5/6	0/18	GKSLNSYGIS	VIYSDGRRTFYSDSVK	GRQAGTFDS	GP_Gibbs
640 pM	6/6	1/18	GFDLNSYGIS	VIYSDGRRTFYGDSVK	GHEAGTFDS	GPLM_Gibbs
not detected	0/6	0/18	GYSLQDYGIS	VIYADGKRKSYAEDVK	GNTAGSFMD	En_Gibbs
690 pM	6/6	1/18	GFDLNEYGIS	VIYADGMRTSYADSVK	GNNAGTFDV	En_Gen
2.3 nM	6/6	0/18	GFELNEYGIS	VIYSDGRRTFYGDSVK	GHAAGTFDT	GP_Gen
600 pM	6/6	0/18	GFDLNSYGIS	VIYSDGRRTFYGDAVK	GKEAGTFDS	GP_Gibbs
not detected	0/6	0/18	GKKLDEYGIS	VIYADGKRNFYSNSVK	GGMAGGLTV	En_Gibbs
670 pM	6/6	0/18	GFSLNSYGIS	VIYSDGRRTFYADSVK	GRLAGTFDS	GPLM_Gen
170 pM	6/6	1/18	GFDLNEYGIS	VIYADGRRTFYTDSVK	GNVAGTFDQ	En_HC
3.3 nM	5/6	0/18	GFDLDEYGIS	VIYADGKRTAYADDVK	GENAGTFDQ	En_Gen
not detected	0/6	0/18	GFTLNSYGIS	VIYSDGRRTFYGDSVK	GRAAGTFTV	GP_HC
160 nM	1/6	1/18	GFDLNEYGIS	VIYADGRRTAYVDSVK	GGNAGFFDI	En_HC